Measured values taken from ChEMBL document CHEMBL1132956 (2000).
pIC50: −log10 of the molar value.

Chains of the proteins cited; added tags and fusions are not shown.
UniProt P23219, whole entry: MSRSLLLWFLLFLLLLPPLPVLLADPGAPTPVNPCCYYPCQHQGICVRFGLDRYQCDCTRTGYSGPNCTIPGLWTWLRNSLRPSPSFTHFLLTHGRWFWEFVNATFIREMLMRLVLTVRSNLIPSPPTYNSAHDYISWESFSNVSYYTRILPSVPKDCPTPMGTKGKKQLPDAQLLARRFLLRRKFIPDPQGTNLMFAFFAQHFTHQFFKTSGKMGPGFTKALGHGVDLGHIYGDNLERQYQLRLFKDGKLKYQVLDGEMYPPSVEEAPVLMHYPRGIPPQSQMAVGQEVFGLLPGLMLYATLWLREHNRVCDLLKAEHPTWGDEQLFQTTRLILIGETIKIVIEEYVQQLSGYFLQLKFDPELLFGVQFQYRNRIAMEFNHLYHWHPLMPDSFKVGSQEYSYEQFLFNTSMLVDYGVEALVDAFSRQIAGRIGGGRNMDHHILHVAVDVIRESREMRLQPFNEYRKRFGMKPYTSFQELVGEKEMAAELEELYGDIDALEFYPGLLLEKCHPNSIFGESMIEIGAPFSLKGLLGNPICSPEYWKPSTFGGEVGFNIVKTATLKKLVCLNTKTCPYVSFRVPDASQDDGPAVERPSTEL

Target: Prostaglandin G/H synthase 1 (Homo sapiens, UniProt P23219)

Question: With `Cc1onc(-c2ccccc2)c1-c1ccc(S(N)(=O)=O)cc1` [VALDECOXIB] as the molecule, how does the pIC50 read?
Answer: 3.85
